Assay results from ChEMBL document CHEMBL3352468, “Synthesis and receptor binding in trans-CD ring-fused A-CD estrogens: comparison with the cis-fused isomers” (Bioorg Med Chem Lett, 2014).

Amino acid sequences for entries named in this document (tags omitted).
UniProt Q92731, whole entry: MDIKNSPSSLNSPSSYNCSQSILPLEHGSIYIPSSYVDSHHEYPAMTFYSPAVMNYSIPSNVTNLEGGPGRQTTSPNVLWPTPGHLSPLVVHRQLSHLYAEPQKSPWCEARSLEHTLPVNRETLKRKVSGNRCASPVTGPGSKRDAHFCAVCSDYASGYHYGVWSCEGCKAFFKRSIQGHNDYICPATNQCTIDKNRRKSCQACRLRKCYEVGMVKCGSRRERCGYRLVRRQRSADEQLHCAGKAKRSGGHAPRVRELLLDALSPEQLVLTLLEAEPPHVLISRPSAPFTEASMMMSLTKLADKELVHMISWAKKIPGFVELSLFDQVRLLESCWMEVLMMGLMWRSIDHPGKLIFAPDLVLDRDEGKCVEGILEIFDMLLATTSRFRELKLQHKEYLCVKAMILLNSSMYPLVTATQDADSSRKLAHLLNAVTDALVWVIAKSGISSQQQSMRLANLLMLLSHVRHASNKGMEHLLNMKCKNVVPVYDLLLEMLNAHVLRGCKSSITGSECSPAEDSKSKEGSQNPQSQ

Target: Estrogen receptor beta (Homo sapiens) (UniProt Q92731)
Assay: Binding affinity to ERbeta (unknown origin) relative to estradiol

For `C[C@]12CC[C@H](c3ccc(O)cc3C(F)(F)F)C[C@H]1CC[C@@H]2O`, the relative binding affinity (RBA) was 205.
